ERp5 block – inhibitors of ERp5-driven insulin aggregation, primary screen, biochemical, turbidity, absorbance 650 nm, single point; 90 min; inhibition, % at 9.99 µM; AID 651711, 2012; actives 0.05% (n = 350,000);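 active = mean replicate inhibition above about 25%, with every replicate also reaching it, limit read from the data, passing the limit was not always enough; inconclusive = only one of those two criteria met; inactive = neither criterion met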
SIRT5 block – SIRT5 desuccinylase inhibitors, primary screen, biochemical, fluorescence imaging, single point, set 5; NAD-dependent protein deacylase sirtuin-5, mitochondrial (Homo sapiens), Q9NXA8; Purified SirT5, succinyl-peptide AMC, trypsin-coupled fluorescence; inhibition, % at 15 µM; actives 1.1% (n = 330,000); in the data active = inhibition above about 15%; inconclusive = no clear call, values can overlap the other calls
S100A4 inh HTS – inhibitors of S100A4-myosin IIA peptide binding, primary screen, biochemical, fluorescence polarization, TAMRA-MyoIIA peptide; inhibition, % at 10.7 µM; actives 0.14% (n = 360,000); AID 652163, 2013;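 active = mean inhibition of at least 70% across replicates, with every replicate also reaching that level; inconclusive = mean inhibition reaches 70% but some replicates fall short; inactive = mean inhibition below 70%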
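Assay system: human S100A4 monomer with TAMRA-labelled myosin IIA peptide / Buffer or medium: Calcium-containing HEPES buffer, pH 7.2 / Reagent: TAMRA-labelled myosin IIA heavy-chain peptide probe, 5 nM / Compound: one dose per compound / Timing: polarization read 5 min after assay mix addition, stable 5–60 min / Benchmarks: neutral control DMSO, positive control TFP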
Yeast UUG start – modulators of start codon recognition fidelity in yeast. S. cerevisiae UUG-firefly luciferase reporter, luminescence/redox ratio. activity score, % at 18.7 µM. 350,000 tested, 0.13% active;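 active = replicate mean at a twofold rise or more, about +100% in these data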;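 note: firefly luciferase made from a UUG start codon reports start codon fidelity; reporter light over untreated wells divided by growth signal over untreated wells; some hits fall short of that in this replicate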
PDI inh – inhibitors of human PDI, primary screen, biochemical, turbidity, single point, plate reader. Protein disulfide-isomerase (Homo sapiens), P07237. PDI insulin aggregation turbidity, A650, 90 min. inhibition, % at 10 µM. actives 0.052% (n = 350,000). AID 588391, 2011;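 active = mean inhibition across replicates of 30% or more, whatever share of single replicates reach that level; inconclusive = mean inhibition below 30% while every single replicate reaches 30%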
FGF22 binding – binders of human FGF22 protein, primary screen, FGF22 synaptogenesis inhibitor project, biophysical, thermal shift, single point; Fibroblast growth factor 22 (Homo sapiens), Q9HCT0; activity (Tm shift, normalised), % at 9.99 µM; AID 651658, 2012; recombinant FGF22 thermal shift, SYPRO orange fluorescence; percent of sucrose octasulfate shift, DMSO zero; actives 1.5% (n = 340,000);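 active = mean Tm shift, scaled 0 neutral to 100 positive control, at about 1.3% or above, every replicate too, limit read from the data; inconclusive = no clear call, values can overlap the other calls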
Each line names hits and unclear results; the compound was inactive in the other large screens. In the library only some 2.2% were active in any assay of this set; here they are far more common.

C[C@H](NC(=O)C1CCN(C(=O)[C@H](Cc2ccccc2)NC(=O)OC(C)(C)C)CC1)C(=O)O	none
N[C@@H](Cc1ccc(O)c(O)c1)C(=O)O	SIRT5 block 15
NC(Cc1ccc(O)c([N+](=O)[O-])c1)C(=O)O (stereo not drawn)	none (no result: ERp5 block, SIRT5 block, S100A4 inh HTS, Yeast UUG start, FGF22 binding)
Cc1cc(C)cc(S(=O)(=O)c2cnc3ccccc3n2)c1	FGF22 binding 43 (no result: Yeast UUG start)
C=CCNc1ncnc2c1ncn2[C@H]1CN(Cc2cccc3ccccc23)C[C@@H](CO)O1	PDI inh 39 (no result: SIRT5 block)
C=CCNc1ncnc2c1ncn2[C@H]1CN(Cc2ccccc2)C[C@@H](CO)O1	none
C/C(CC(=O)Nc1ccc(C)c(Cl)c1)=N\NC(=O)c1ccncc1	FGF22 binding 44 (no result: Yeast UUG start)
C/C(CC(=O)Nc1ccc(Cl)cc1Cl)=N\NC(=O)c1ccncc1	none (no result: Yeast UUG start)
CO[C@H]1CN(C)C(=O)c2cc(NC(=O)C3CCCC3)ccc2OC[C@H](C)NC[C@H]1C	none (no result: PDI inh)
COc1ccccc1C1Nc2ccccc2NC2=C1C(=O)CC(C)(C)C2 (stereo not drawn)	none
COc1ccc(OC)c(C2Nc3ccccc3NC3=C2C(=O)CC(C)(C)C3)c1 (stereo not drawn)	SIRT5 block 20
CO[C@H]1CN(C)C(=O)c2ccc(NC(=O)Nc3ccc(Cl)c(Cl)c3)cc2OC[C@H](C)NC[C@H]1C	SIRT5 block 100 (no result: PDI inh)
CO[C@H]1CN(C)C(=O)c2ccc(NC(=O)c3ccccc3F)cc2OC[C@H](C)NC[C@@H]1C	S100A4 inh HTS 126 (no result: Yeast UUG start, PDI inh, FGF22 binding)
CO[C@H]1CN(C)C(=O)c2ccc(NC(=O)c3ccccc3F)cc2OC[C@@H](C)NC[C@H]1C	none (no result: PDI inh)
CO[C@H]1CN(C)C(=O)c2ccc(NC(=O)Nc3ccc(Cl)c(Cl)c3)cc2OC[C@H](C)NC[C@@H]1C	none (no result: PDI inh)
Cc1cc(N/N=C/c2ccc(Cl)cc2)nc(NCc2ccccc2)n1	FGF22 binding 1.6 (no result: Yeast UUG start)
Cc1cc(N/N=C/c2ccccc2)nc(NCc2ccccc2)n1	none
Cc1ccc(C)c(N2CCN(C(=O)c3cccn4c(=O)c5sccc5nc34)CC2)c1	SIRT5 block 19 (no result: Yeast UUG start)
C[C@@H]1CN([C@H](C)CO)C(=O)c2cc(C#C[C@@H](C)O)cnc2O[C@H]1CN(C)C(=O)CN1CCOCC1	none (no result: PDI inh)
Cc1cc2nc(CSc3ccccc3)cc(=O)n2[nH]1	SIRT5 block 29 (no result: Yeast UUG start)
C[C@H](CO)N1C[C@H](C)[C@@H](CN(C)S(=O)(=O)c2cn(C)cn2)Oc2c(NC(=O)C3CCOCC3)cccc2C1=O	none (no result: PDI inh)
CCNC(=O)[C@H]1[C@H](CO)[C@H]2Cn3c(ccc(-c4ccccc4)c3=O)[C@@H]1N2CCC(F)(F)F	none (no result: Yeast UUG start, PDI inh)
CN(C)C(=O)CN1c2cccc3cccc(c23)S1(=O)=O	none
N#CCCN(C(=O)CN1c2cccc3cccc(c23)S1(=O)=O)c1ccccc1	FGF22 binding 43 (no result: SIRT5 block)
COc1ccccc1NC(=O)N[C@@H]1CC[C@H](CCNS(=O)(=O)c2ccc(Cl)cc2)O[C@H]1CO	none (no result: PDI inh)
O=C(N[C@H]1CC[C@@H](CCNS(=O)(=O)c2ccc(F)cc2)O[C@H]1CO)C1CCC1	none (no result: PDI inh)
Cc1ccc(S(=O)(=O)NCC[C@@H]2CC[C@H](NC(=O)Nc3cccc(F)c3)[C@@H](CO)O2)cc1	S100A4 inh HTS 73 (no result: PDI inh)
O=C(N[C@H]1CC[C@@H](CCNS(=O)(=O)c2ccc(F)cc2)O[C@@H]1CO)C1CCC1	SIRT5 block 18 (no result: PDI inh)
COc1ccccc1NC(=O)N[C@@H]1CC[C@H](CCNS(=O)(=O)c2ccc(Cl)cc2)O[C@@H]1CO	SIRT5 block 26 (no result: PDI inh)
O=C(C[C@@H]1CC[C@@H](NC(=O)Nc2cccc(F)c2)[C@H](CO)O1)NCC1CC1	SIRT5 block 22 (no result: PDI inh)
Cc1ccc(S(=O)(=O)Nc2ccc3c(c2)C(=O)N([C@H](C)CO)C[C@@H](C)[C@@H](CN(C)Cc2ccccc2)O3)cc1	none (no result: Yeast UUG start, PDI inh)
CCC(=O)Nc1ccc2c(c1)OC[C@H](C)N(C(=O)C1CC1)C[C@@H](C)[C@@H](OC)CN(C)C2=O	none (no result: S100A4 inh HTS, PDI inh)
CC(=O)NS(=O)(=O)c1ccc(NC(=S)NC(=O)Cc2ccccc2)cc1	FGF22 binding 43
CC(=O)NS(=O)(=O)c1ccc(NC(=S)NC(=O)CC(C)C)cc1	ERp5 block inconclusive (no result: Yeast UUG start)
COc1cc(Cl)c(CNC[C@H]2O[C@@H](n3cnc(C(N)=O)n3)[C@H](O)[C@@H]2O)c(Cl)c1O	FGF22 binding 43 (no result: SIRT5 block)
COc1cccc(CNC[C@H]2O[C@@H](n3cnc(C(N)=O)n3)[C@H](O)[C@@H]2O)c1OCc1ccc(F)cc1Cl	none (no result: SIRT5 block)
CCC(=O)N1[C@H](C(=O)N2CCc3ccccc3C2)[C@@H](CO)[C@@H]2Cn3c(cccc3=O)[C@@H]21	none (no result: Yeast UUG start, PDI inh)
Cc1nn(-c2ccccc2)c(Cl)c1/C=N/NC(=O)CNC(=O)c1ccccc1Cl	FGF22 binding 44 (no result: Yeast UUG start)
CCN(CC)C(=O)C1=C(C)N(Cc2ccccc2)C(=O)C(CC(=O)NC2CCCCC2)C1 (stereo not drawn)	FGF22 binding 44 (no result: SIRT5 block)
CC1=C(C(=O)N(C)C)CC(CC(=O)NC2CC2)C(=O)N1Cc1ccccc1 (stereo not drawn)	none
CCN(CC)C(=O)C1=C(C)N(Cc2ccccc2)C(=O)C(CC(=O)NC2CC2)C1 (stereo not drawn)	FGF22 binding 44 (no result: SIRT5 block)
CCN(CC)C(=O)C1=C(C)N(Cc2ccc(C(C)(C)C)cc2)C(=O)C(CC(=O)NC2CCCCC2)C1 (stereo not drawn)	none
CN(c1cccc(NC(=O)c2ccc(N(C)S(=O)(=O)c3ccccc3)cc2)c1)S(C)(=O)=O	none (no result: Yeast UUG start)
CN(c1cccc(NC(=O)c2ccc(C(C)(C)C)cc2)c1)S(C)(=O)=O	FGF22 binding 43
O=C(OCC(=O)N1CCc2ccccc21)c1nc(Cl)ccc1Cl	FGF22 binding 44 (no result: Yeast UUG start)
CC(NC(=O)COC(=O)/C=C/c1cccc(F)c1)c1ccccc1 (stereo not drawn)	none (no result: ERp5 block)
O=C(COC(=O)c1nc(Cl)ccc1Cl)NNC(=O)c1ccccc1	none (no result: FGF22 binding)
CC(NC(=O)COC(=O)/C=C/c1ccc(Cl)cc1)c1ccccc1 (stereo not drawn)	FGF22 binding 44
O=C(COC(=O)c1ccccc1C(=O)c1ccc(Cl)cc1)NC(c1ccccc1)c1ccccc1	FGF22 binding 43 (no result: Yeast UUG start)
CC(NC(=O)COC(=O)c1nc(Cl)ccc1Cl)c1ccccc1 (stereo not drawn)	FGF22 binding 44 (no result: SIRT5 block)
CCCNC(=O)N1C[C@@H](C)[C@H](OC)CN(C)C(=O)c2ccc(NS(C)(=O)=O)cc2OC[C@@H]1C	none (no result: PDI inh)
